From ChEMBL document CHEMBL5532663, “Discovery of Potent and Selective Phosphatidylinositol 3-Phosphate 5-Kinase (PIKfyve) Inhibitors as Methuosis Inducers” (J Med Chem, 2024) come the findings set out here.

Sequences of proteins named here, by UniProt entry; tags and fusion partners are left off. A change or cut given only in a name is not applied to a line headed by its entry.
UniProt P62942, whole entry, looked up: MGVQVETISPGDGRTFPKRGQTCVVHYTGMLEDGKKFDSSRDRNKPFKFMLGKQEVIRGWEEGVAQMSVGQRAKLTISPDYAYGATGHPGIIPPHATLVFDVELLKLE
UniProt Q13535: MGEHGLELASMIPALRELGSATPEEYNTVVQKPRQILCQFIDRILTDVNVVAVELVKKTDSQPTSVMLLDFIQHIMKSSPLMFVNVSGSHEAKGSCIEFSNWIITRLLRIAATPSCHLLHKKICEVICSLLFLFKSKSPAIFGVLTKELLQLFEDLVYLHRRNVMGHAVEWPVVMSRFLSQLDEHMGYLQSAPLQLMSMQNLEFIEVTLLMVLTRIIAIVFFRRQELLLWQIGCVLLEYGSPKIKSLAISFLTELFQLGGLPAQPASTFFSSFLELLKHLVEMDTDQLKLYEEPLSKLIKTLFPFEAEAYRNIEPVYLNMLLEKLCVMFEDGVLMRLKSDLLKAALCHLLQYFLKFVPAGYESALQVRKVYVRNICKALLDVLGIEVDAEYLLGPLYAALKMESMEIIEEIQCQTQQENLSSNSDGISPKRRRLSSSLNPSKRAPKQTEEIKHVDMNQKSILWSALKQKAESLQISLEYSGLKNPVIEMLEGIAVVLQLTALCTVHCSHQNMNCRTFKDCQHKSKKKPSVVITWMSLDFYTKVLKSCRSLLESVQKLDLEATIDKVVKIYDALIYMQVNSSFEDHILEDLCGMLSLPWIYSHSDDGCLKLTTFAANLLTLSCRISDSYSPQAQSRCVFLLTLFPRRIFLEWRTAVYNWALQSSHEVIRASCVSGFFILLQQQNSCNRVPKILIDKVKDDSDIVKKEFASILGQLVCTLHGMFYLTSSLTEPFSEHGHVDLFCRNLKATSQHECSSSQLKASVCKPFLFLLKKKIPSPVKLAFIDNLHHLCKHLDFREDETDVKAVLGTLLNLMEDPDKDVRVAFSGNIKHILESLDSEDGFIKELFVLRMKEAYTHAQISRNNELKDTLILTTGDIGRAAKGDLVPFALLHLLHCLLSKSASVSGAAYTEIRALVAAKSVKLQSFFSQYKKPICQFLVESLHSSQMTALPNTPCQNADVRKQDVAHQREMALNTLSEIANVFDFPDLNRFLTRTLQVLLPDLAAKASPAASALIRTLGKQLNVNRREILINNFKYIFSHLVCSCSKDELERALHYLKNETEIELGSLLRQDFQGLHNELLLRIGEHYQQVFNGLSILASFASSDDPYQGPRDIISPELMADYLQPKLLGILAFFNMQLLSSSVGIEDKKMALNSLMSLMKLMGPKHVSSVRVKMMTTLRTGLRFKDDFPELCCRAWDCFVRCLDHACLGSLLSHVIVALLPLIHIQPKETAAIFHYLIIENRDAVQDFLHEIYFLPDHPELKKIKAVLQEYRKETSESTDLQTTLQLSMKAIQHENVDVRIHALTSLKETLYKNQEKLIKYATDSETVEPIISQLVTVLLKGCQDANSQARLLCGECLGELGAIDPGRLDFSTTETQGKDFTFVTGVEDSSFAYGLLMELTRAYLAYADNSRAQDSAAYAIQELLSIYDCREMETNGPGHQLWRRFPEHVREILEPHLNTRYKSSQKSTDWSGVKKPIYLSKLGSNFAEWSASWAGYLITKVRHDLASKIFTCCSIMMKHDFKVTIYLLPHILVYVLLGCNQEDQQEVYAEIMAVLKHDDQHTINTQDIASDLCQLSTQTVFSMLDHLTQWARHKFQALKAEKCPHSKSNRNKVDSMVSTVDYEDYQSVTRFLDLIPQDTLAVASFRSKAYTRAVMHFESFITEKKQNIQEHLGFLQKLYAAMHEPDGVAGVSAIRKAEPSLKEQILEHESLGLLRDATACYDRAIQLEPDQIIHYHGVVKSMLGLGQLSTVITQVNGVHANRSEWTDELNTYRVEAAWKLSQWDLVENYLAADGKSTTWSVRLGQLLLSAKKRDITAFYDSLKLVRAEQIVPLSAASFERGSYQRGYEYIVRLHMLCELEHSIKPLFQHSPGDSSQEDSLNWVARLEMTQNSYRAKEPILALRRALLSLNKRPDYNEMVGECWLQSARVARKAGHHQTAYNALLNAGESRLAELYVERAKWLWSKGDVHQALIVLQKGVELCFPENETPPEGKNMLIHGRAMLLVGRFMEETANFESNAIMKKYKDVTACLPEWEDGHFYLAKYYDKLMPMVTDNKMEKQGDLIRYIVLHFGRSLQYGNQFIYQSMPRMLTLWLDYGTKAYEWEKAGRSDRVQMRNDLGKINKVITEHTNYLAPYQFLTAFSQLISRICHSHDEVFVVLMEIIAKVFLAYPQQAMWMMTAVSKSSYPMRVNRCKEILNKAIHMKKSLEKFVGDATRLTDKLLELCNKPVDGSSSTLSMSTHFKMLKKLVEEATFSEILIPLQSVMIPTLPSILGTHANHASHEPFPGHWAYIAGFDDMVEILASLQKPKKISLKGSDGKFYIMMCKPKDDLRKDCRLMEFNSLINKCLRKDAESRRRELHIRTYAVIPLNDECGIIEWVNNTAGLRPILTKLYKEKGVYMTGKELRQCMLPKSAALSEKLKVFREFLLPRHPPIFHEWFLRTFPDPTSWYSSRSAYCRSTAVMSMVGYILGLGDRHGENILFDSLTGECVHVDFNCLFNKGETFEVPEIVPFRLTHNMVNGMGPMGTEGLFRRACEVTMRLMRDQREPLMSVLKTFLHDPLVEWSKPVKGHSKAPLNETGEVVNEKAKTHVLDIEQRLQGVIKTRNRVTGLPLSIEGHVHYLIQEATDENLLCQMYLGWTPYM
UniProt P27986, whole entry, looked up: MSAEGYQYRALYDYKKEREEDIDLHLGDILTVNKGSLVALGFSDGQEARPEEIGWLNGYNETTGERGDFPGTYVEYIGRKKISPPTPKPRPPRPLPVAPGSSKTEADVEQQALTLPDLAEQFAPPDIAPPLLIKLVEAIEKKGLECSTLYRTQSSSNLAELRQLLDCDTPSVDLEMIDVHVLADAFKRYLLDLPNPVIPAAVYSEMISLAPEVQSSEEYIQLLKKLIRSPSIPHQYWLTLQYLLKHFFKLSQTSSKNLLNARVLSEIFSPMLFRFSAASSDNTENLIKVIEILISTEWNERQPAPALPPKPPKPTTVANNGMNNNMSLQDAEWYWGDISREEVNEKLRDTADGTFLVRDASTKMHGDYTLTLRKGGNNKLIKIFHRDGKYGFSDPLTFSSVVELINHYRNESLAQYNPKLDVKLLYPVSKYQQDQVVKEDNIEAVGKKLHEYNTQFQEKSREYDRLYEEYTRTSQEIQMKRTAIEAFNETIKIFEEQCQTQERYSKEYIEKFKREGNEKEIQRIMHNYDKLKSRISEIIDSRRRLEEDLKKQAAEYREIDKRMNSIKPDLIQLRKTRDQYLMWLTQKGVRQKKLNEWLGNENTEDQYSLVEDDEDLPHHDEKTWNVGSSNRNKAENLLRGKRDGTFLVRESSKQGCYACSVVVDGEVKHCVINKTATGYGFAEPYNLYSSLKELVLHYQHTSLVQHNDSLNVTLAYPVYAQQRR
UniProt P42338: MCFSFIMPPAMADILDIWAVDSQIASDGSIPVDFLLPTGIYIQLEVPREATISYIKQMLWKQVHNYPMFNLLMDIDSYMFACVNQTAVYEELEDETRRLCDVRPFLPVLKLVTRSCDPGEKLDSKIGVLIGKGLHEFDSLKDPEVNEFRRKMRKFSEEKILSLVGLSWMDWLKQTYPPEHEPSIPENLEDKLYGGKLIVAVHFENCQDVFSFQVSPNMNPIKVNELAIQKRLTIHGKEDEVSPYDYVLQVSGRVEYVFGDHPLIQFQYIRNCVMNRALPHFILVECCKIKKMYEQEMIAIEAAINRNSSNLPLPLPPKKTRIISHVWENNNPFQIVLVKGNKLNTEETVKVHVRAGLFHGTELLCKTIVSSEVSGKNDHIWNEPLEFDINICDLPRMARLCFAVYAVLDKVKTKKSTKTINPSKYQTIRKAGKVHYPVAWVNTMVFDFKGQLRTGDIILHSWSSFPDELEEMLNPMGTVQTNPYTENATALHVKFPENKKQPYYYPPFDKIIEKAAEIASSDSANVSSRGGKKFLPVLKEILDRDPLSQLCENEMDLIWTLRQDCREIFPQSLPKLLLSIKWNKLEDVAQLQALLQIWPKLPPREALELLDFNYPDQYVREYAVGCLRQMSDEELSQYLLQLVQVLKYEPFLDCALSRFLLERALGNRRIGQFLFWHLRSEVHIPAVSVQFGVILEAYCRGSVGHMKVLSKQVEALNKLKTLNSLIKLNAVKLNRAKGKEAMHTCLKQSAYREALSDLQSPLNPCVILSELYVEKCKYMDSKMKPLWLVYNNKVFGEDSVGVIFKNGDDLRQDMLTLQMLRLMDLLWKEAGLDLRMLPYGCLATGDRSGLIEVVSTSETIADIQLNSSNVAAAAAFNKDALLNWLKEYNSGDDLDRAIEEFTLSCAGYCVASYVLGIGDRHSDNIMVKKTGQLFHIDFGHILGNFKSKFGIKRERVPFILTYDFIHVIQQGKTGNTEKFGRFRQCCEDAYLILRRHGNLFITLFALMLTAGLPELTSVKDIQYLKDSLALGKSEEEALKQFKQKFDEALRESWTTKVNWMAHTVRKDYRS
UniProt P48736: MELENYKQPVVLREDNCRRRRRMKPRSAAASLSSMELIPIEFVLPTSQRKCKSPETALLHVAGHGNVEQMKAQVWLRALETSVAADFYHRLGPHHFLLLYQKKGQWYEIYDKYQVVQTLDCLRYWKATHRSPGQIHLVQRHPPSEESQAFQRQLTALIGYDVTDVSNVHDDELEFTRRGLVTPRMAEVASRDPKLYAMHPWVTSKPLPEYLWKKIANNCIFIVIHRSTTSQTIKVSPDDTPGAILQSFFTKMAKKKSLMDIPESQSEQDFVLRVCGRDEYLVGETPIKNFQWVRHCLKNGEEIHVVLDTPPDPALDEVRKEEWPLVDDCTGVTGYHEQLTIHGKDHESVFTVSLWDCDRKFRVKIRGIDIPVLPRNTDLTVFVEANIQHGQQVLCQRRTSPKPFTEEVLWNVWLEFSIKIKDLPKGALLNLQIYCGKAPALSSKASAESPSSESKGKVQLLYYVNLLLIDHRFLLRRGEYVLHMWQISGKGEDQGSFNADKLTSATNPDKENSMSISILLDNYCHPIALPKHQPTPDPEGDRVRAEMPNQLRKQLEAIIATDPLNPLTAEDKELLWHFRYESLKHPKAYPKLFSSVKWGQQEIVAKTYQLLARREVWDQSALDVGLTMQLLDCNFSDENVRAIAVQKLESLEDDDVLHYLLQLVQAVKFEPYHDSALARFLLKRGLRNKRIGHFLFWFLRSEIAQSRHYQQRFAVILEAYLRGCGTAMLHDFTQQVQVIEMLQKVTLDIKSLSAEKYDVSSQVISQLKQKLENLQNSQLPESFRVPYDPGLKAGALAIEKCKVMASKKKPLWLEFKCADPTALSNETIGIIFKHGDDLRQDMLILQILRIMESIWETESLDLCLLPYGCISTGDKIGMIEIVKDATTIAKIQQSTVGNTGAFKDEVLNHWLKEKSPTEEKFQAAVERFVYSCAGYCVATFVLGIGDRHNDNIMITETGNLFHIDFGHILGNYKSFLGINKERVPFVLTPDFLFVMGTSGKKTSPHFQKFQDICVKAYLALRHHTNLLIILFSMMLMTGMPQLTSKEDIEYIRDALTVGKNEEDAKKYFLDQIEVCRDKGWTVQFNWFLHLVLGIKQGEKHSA
UniProt O60331: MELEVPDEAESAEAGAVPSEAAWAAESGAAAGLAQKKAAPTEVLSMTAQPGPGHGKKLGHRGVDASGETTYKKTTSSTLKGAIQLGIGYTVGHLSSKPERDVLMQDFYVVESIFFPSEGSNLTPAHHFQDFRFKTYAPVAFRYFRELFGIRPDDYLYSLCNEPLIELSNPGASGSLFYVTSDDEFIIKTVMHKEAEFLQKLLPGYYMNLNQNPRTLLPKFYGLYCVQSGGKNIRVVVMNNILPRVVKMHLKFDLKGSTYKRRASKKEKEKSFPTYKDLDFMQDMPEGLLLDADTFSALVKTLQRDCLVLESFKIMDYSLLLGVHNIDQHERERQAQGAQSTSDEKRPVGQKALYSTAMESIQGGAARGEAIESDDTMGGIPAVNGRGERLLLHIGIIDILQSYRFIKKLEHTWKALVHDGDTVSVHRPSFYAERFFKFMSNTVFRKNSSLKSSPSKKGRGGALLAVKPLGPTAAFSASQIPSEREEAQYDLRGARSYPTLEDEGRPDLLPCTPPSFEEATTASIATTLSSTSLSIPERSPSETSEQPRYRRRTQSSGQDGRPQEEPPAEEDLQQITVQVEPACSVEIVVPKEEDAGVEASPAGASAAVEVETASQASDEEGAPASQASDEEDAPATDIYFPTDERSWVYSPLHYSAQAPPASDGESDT

In series [1] the target is Serine/threonine-protein kinase mTOR (Homo sapiens) (UniProt P42345). The experiment in a line: Inhibition of mTOR (unknown origin) assessed as residual activity at 1000 nM in presence of gamma33P-ATP by radiometric assay relative to control.
Series [2] deals with FKBP12A/mTOR (Homo sapiens) (UniProt P62942+P42345). As to the kind of experiment: Inhibition of mTOR/FKBP12 (unknown origin) assessed as residual activity at 1000 nM in presence of gamma33P-ATP by radiometric assay relative to control. Type of series: protein-complex assay.
The target in series [3] is Serine-protein kinase ATM (Homo sapiens) (UniProt Q13315). As to the kind of experiment: Inhibition of ATM (unknown origin) assessed as residual activity at 1000 nM in presence of gamma33P-ATP by radiometric assay relative to control.
The target in the next series is ATR/ATRIP (Homo sapiens) (UniProt Q13535+Q8WXE1). The experiment in a line: Inhibition of ATR/ATR1P (unknown origin) assessed as residual activity at 1000 nM in presence of gamma33P-ATP by radiometric assay relative to control. Type of series: protein-complex assay.
In series [4] the target is DNA-dependent protein kinase catalytic subunit (Homo sapiens) (UniProt P78527). As to the kind of experiment: Inhibition of DNA-PK (unknown origin) assessed as residual activity at 1000 nM in presence of gamma33P-ATP by radiometric assay relative to control.
The target in series [5] is PI3K p110 beta/p85 alpha (Homo sapiens) (UniProt P27986+P42338). As to the kind of experiment: Inhibition of p110beta/p85alpha (unknown origin) assessed as residual activity at 1000 nM in presence of gamma33P-ATP by radiometric assay relative to control. Type of series: protein-complex assay.
For series [6], the target named is Phosphatidylinositol 4,5-bisphosphate 3-kinase catalytic subunit gamma isoform (Homo sapiens) (UniProt P48736). As to the kind of experiment: Inhibition of p120gamma (unknown origin) assessed as residual activity at 1000 nM in presence of gamma33P-ATP by radiometric assay relative to control.
Series [7] has as its target PIK3CG/PIK3R1 (Homo sapiens) (UniProt P27986+P48736). As to the kind of experiment: Inhibition of p110gamma/p85alpha (unknown origin) assessed as residual activity at 1000 nM in presence of gamma33P-ATP by radiometric assay relative to control. Type of series: protein-complex assay.
For series [8], the target named is PI3-kinase p110-alpha/p85-alpha (Homo sapiens) (UniProt P27986+P42336). The experiment in a line: Inhibition of p110alpha/p85alpha (unknown origin) assessed as residual activity at 1000 nM in presence of gamma33P-ATP by radiometric assay relative to control. Type of series: protein-complex assay.
Series [9] deals with PI3-kinase p110-alpha/p85-alpha (Homo sapiens), P27986+P42336 [E542K]. The experiment in a line: Inhibition of p110alpha E542K mutant/p85alpha (unknown origin) assessed as residual activity at 1000 nM in presence of gamma33P-ATP by radiometric assay relative to control. Type of series: protein-complex assay.
Series [10] has as its target Phosphatidylinositol 4-phosphate 3-kinase C2 domain-containing subunit alpha (Homo sapiens) (UniProt O00443). The experiment in a line: Inhibition of PI3KC2alpha (unknown origin) assessed as residual activity at 1000 nM in presence of gamma33P-ATP by radiometric assay relative to control.
The target in series [11] is T1, Phosphatidylinositol 3-kinase C2 domain-containing subunit gamma (Homo sapiens) (UniProt O75747).
T1 sequence (whole entry): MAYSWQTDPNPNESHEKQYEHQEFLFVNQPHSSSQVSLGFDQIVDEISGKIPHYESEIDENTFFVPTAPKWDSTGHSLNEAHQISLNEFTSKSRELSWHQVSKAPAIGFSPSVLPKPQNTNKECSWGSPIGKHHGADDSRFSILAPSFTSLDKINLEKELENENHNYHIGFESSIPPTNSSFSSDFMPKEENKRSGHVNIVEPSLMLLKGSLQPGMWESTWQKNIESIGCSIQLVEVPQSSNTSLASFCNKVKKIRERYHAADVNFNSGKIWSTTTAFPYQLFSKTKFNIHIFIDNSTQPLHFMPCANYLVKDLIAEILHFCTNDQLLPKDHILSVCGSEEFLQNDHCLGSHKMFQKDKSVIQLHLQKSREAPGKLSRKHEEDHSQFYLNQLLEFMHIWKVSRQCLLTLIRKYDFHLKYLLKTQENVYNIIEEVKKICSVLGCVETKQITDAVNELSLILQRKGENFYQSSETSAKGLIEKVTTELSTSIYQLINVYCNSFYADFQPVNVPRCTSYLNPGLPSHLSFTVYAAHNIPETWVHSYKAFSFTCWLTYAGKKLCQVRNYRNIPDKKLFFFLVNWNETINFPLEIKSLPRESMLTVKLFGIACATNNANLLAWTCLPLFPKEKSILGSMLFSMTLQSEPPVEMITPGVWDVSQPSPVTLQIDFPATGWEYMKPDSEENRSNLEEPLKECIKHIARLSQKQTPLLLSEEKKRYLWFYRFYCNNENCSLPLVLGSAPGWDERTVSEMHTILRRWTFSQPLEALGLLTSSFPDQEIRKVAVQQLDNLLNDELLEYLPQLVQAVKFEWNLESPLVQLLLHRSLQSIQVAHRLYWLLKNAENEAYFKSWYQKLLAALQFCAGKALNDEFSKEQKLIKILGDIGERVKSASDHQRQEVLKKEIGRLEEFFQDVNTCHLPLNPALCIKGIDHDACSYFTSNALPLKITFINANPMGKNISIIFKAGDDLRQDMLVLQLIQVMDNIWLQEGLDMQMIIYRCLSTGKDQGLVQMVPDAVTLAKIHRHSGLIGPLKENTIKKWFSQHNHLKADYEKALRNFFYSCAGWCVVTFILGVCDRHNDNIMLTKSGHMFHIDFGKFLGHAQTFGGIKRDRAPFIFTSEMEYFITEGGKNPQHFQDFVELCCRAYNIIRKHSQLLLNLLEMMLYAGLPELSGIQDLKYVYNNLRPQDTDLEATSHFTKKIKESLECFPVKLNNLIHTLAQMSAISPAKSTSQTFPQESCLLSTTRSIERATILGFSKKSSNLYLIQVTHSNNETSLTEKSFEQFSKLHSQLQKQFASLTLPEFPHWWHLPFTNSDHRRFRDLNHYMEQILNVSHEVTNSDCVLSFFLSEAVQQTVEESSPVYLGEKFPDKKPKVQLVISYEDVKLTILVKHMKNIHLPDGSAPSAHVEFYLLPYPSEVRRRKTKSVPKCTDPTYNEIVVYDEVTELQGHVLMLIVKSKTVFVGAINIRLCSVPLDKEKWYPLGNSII
As to the kind of experiment: Inhibition of PI3KC2gamma (unknown origin) assessed as residual activity at 1000 nM in presence of gamma33P-ATP by radiometric assay relative to control.

Series [12] deals with T2, Phosphatidylinositol 5-phosphate 4-kinase type-2 alpha (Homo sapiens) (UniProt P48426).
T2 sequence (whole entry): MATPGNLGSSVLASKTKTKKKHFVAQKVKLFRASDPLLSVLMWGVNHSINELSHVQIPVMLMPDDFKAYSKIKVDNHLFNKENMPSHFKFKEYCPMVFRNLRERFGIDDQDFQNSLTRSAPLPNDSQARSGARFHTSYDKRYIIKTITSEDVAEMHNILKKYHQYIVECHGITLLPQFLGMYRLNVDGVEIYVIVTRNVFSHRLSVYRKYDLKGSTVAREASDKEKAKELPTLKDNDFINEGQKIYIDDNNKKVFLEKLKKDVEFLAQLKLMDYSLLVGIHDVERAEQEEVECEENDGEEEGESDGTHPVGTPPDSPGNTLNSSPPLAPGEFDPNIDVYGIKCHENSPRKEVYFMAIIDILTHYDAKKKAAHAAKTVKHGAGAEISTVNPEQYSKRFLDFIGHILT
The experiment in a line: Inhibition of PIP4K2alpha (unknown origin) assessed as residual activity at 1000 nM in presence of gamma33P-ATP by radiometric assay relative to control.

The target in series [13] is Phosphatidylinositol 4-phosphate 5-kinase type-1 gamma (Homo sapiens) (UniProt O60331). As to the kind of experiment: Inhibition of PIP5K1gamma (unknown origin) assessed as residual activity at 1000 nM in presence of gamma33P-ATP by radiometric assay relative to control.
Series [14] can be described thus: Half life in Balb/C mouse at 10 mg/kg, iv measured for 24 hrs by LC-MS/MS analysis. Type of series: ADME, organism-based. The settings on record: in vivo.
The nature of series [15]: Apparent volume of distribution in Balb/C mouse at 50 mg/kg, po measured for 24 hrs by LC-MS/MS analysis. The settings on record: in vivo. Type of series: ADME, organism-based.
A short description of series [16]: Toxicity in NOD/SCID mouse model xenografted with human HeLa cells assessed as body weight loss at 20 mg/kg, po qd treated for 10 days. The following applies: in vivo, 240 h, time 10 day. Type of series: organism-based. (In xenograft studies the graft and the host belong to different species.)
The conditions of series [17]: mouse, in vivo, iv, 10 mg/kg, 24 h.

For `Cc1ccc2oc(-c3cn([C@H]4CC[C@@H](N)CC4)c4ncnc(N)c34)cc2c1`, the Activity in [1] turned out to be 103%; in series [2] it was 103%; in series [3], 102%; at ATR/ATRIP (Homo sapiens) it was 91%; in series [4] it was 47%; in series [5], 90%. Also, the Activity came out at 90% in series [6]; 39% in series [7]; 73% in series [8]; 48% in [9]; 88% in series [10]; 88% in series [11]. The values for the Activity in [12], in series [13] and in series [16] were 78%, 31% and “Non-Toxic”, respectively. The t1/2 in series [14] is 4.21 h. Also, the Vz in series [15] was 0.61 L/kg. In addition, in series [17], the AUCt is 35.84 µg·h/mL.
